Experiments:
H727 cells [1] = assay: Cytotoxicity assay (LDH release); conditions: H727, p<0.003
PKC delta = PKC delta (Homo sapiens, UniProt Q05655); assay: PKC kinase activity assay (Omnia Kinase Assay); type: biochemical; conditions: read-out: PKC delta inhibitory activity IC50; comparative analysis
Procedure: PKC Kinase Activity Assays: Assays were carried out using recombinant PKC alpha or PKC gamma, (Invitrogen) and the Omnia® Kinase Assays (Invitrogen) with a “PKC kinase-specific” peptide substrate. Incorporation of a chelation-enhanced fluorophore (CHEF) results in an increase in fluorescence ex360/em485) upon phosphorylation. The kit was used according to the manufacturer's instructions.

By UniProt entry, the sequences of proteins in these tests, tags left out.
UniProt Q05655, whole entry: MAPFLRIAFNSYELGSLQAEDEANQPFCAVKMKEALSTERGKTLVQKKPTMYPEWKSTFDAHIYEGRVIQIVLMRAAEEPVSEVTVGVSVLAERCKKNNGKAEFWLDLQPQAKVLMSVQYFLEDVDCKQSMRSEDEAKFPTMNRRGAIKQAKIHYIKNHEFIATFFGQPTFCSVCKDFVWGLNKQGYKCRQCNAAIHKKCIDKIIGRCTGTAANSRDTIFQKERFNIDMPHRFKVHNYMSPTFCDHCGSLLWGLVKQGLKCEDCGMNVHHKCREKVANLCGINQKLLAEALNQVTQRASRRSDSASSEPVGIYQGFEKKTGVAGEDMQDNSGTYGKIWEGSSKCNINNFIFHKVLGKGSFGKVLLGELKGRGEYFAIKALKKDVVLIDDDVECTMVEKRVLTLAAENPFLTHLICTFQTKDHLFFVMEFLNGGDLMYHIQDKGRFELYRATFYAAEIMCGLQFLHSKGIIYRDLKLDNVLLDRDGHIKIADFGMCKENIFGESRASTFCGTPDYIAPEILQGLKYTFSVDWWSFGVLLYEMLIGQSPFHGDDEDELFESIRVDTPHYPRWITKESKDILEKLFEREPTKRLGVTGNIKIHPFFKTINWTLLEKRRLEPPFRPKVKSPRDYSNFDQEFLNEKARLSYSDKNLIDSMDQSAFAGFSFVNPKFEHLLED

H727 cells [2] = assay: Cell proliferation assay (MTT/MTS)
CNDT 2.5 cells = assay: Cell proliferation assay (MTT/MTS)
BON1 cells = assay: Cell proliferation assay (MTT/MTS)

SMILES: CC1(C)C=Cc2cc(CCn3c4ccccc4c4ccccc43)cc(C(=O)/C=C/c3ccccc3)c2O1
- LDH release versus vehicle control, significance (H727 cells [1]): reached significance by 24 hr of exposure
- IC50 (PKC delta): 900 nM
- reduction in cell numbers (H727 cells [2]; H727, by 72 hrs, highest concentrations tested): 80%
- IC50 (H727 cells [2]; read-out: IC50, decrease in cell number, H727, by 48 hrs): 12 µM
- reduction in cell numbers (CNDT 2.5 cells; CNDT 2.5, by 72 hrs, highest concentrations tested): 80%
- IC50 (CNDT 2.5 cells; read-out: IC50, decrease in cell number, CNDT 2.5, by 48 hrs): 12 µM
- reduction in cell numbers (BON1 cells; BON1, by 72 hrs, highest concentrations tested): 80%
- IC50 (BON1 cells; read-out: IC50, decrease in cell number, BON1, by 48 hrs): 12 µM
